SMILES strings stand for the structures. Only a part is listed here, and it is no random draw. Calls of active or inactive are those of the source. Rule as the data show it: active = inhibition above about 45%; inactive = the rest.

The chains behind the UniProt entries cited, without tags or fusion partners. Residues count along the entry.
UniProt P07711, 114-288 limits assumed: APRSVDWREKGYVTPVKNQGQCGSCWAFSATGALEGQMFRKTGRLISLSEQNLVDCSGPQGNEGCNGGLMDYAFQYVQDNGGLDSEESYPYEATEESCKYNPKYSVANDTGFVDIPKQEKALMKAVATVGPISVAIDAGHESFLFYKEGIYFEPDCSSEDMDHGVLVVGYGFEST
UniProt P07711, 292-333 limits assumed: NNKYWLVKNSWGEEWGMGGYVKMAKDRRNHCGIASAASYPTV

For the assay, the target named is Procathepsin L (Homo sapiens) (UniProt P07711). Briefly: inhibitors of human cathepsin L, biochemical (AID 460).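 Also: 0% = enzyme with no compound and 100% = no enzyme blank.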 Particulars: purified cathepsin L, fluorogenic substrate, fluorescence; hits give high values;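 tested at 10 µM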.
In the case of `N#CC1(Nc2ccccc2)CCN(CCc2ccccc2)CC1`, the inhibition was inactive: -4.52%.
As for `O=C(OC1CN2CCC1CC2)C1c2ccccc2Oc2ccccc21` (stereo unspecified), the figure is inactive: 3.35%; as for `CCOc1ncccc1C(=O)NCC1(N2CCOCC2)CCCCC1`, inactive: -2.65%.
On to `CCC(CO)(C(=O)OC1CN2CCC1CC2)c1ccccc1` (stereo unspecified), for which the inhibition is inactive: -2.03%.
As for `Fc1ccccc1NC1CCN(Cc2ccccc2)CC1`, the figure is inactive: -2.99%; as for `N/C(=N\O)c1c(N)no[n+]1[O-]`, inactive: 12.5%.

The term inhibition denotes the change of the read-out against control, counted positive when it falls.

The record behind these values is PubChem BioAssay AID460 (PCMD, 2006).
